{"source": "patent EP2057188B1", "about": "(priority 2006, dated 2008)", "biological_target": "human GIP receptor", "conditions": "read-out: GIP RBA; the 20th table; modification at residue 2 or residues 2+3; same values are given in nM"}
{"substance": "YaEGTFISDYSIAMDKIHQQDFVNWLLAQKPSSGAPPPS-NH2 [Compound 0601GIP3794]", "values": [{"measurement": "IC50", "value": 3.8, "unit": "nM"}]}
